Assay results as given in paper PMC11096368, “Transcriptomic signature, bioactivity and safety of a non-hepatotoxic analgesic generating AM404 in the midbrain PAG region” (Scientific Reports, 2024).

Tested on: FAAH, CORO2A, and RPL7L1 expression
Test: Single-cell RNA sequencing of midbrain PAG in the CFA model
Assay type: in vivo
Conditions: 100 mg/kg, 1 h, CFA rats
Method: Subsequently, we endeavored to explore the single-cell transcriptome of the eVF rat mid-brain PAG region to further define the mechanisms of action (MOA) of chronic inflammatory pain and, ultimately, SRP-001- and ApAP-mediated pain modulation. Left hind paws of Sprague Dawley rats were injected with 150 µl of 50% complete Freund’s adjuvant (CFA), freshly diluted with sterile saline on the day of administration, to induce conspicuous long-standing inflammatory pain in the rats’ hind paws, along with mechanical hyperalgesia tested using eVF.to induce local inflammation and a chronic pain state. We dosed the rats with ApAP or SRP-001 (100 mg/kg), and after 1 h, they were euthanized to dissect the PAG from flash-frozen brains for 10xGenomics single-nuclei RNA library preparation (Fig. 4a).
For cell nuclei isolation from the midbrain PAG, they were flash-frozen, dissected (by a cryotome), minced into small pieces, homogenized, filtered through 70 μ strainer and centrifuged. ReadiDrop 7-AAD cell viability dye (Bio-Rad) added, and flow sorted the live (7-AAD positive) nuclei in a BioRad Cell Sorter S3e using purity mode. Nuclei were counted using Nexcelom automated Cellometer with acridine orange/propidium iodide (AOPI) stain, and the Nuclei Stock Concentration used so that 10,000 nuclei could be targeted for each sample. […]

Compound: CC(=O)Nc1ccc(O)cc1 [ApAP, acetaminophen, reference compound]
- Expression of FAAH, CORO2A, and RPL7L1 in PAG (scRNAseq): Downregulation
